Reference: patent US8828983B2, “Macrocycles as factor XIa inhibitors” (Bristol-Myers Squibb Company, priority 2010, dated 2014)

Chains of the proteins cited; added tags and fusions are not shown. Residues count along the entry.
UniProt P03951, 388-625 limits assumed: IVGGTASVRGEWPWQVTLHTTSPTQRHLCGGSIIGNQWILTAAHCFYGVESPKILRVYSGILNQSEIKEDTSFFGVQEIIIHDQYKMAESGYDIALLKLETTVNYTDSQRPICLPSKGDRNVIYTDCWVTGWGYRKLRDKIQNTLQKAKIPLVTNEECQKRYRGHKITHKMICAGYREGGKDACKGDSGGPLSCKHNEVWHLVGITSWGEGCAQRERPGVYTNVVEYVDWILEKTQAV
UniProt P03951, 19-387 partner limits assumed: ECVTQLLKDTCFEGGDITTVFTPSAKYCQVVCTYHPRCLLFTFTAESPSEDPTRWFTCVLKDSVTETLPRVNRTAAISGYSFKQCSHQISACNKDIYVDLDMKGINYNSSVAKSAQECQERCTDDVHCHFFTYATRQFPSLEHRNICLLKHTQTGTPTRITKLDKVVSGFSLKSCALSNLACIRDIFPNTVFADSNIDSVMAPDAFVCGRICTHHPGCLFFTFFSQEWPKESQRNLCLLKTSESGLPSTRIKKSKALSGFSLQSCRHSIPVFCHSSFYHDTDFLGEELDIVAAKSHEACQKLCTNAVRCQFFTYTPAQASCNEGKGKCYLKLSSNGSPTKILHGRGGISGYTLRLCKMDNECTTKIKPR

Biological target: purified human Factor XIa (Homo sapiens (Human), UniProt P03951)
Experiment: Factor XIa assay (chromogenic substrate S-2366 hydrolysis, Ki)
Details: read-out: Factor XIa Ki, substrate S-2366, pH 7.4
Description: The effectiveness of compounds of the present invention as inhibitors of the coagulation Factors XIa, VIIa, IXa, Xa, XIIa, plasma kallikrein or thrombin, can be determined using a relevant purified serine protease, respectively, and an appropriate synthetic substrate. The rate of hydrolysis of the chromogenic or fluorogenic substrate by the relevant serine protease was measured both in the absence and presence of compounds of the present invention. […] A decrease in the rate of absorbance or fluorescence change in the presence of inhibitor is indicative of enzyme inhibition. Such methods are known to one skilled in the art. The results of this assay are expressed as the inhibitory constant, Ki.
Factor XIa determinations were made in 50 mM HEPES buffer at pH 7.4 containing 145 mM NaCl, 5 mM KCl, and 0.1% PEG 8000 (polyethylene glycol; JT Baker or Fisher Scientific). […]
The Michaelis constant, Km, for substrate hydrolysis by each protease, was determined at 25° C. using the method of Lineweaver and Burk. Values of Ki were determined by allowing the protease to react with the substrate in the presence of the inhibitor. Reactions were allowed to go for periods of 20-180 minutes (depending on the protease) and the velocities (rate of absorbance or fluorescence change versus time) were measured. […]

Row | Structure (SMILES) | Ki
1 | CNc1ccc2c(c1)NCCCc1nc(ccc1F)C[C@H](NC(=O)/C=C/c1cc(Cl)ccc1-n1cnnn1)c1nc-2c(Cl)[nH]1 | 0.107 µM
2 | CNc1ccc2c(c1)NCCCc1nc(ccc1F)C[C@@H](NC(=O)/C=C/c1cc(Cl)ccc1-n1cnnn1)c1nc-2c(Cl)[nH]1 | 7.43 µM
